Values quoted from earlier work, collected in patent US12594281B2, “Pharmaceutical dosage forms and methods of use” (EMALEX BIOSCIENCES, INC., priority 2024, dated 2026).

Sequences of proteins named here, by UniProt entry; tags and fusion partners are left off.
UniProt P14416, whole entry: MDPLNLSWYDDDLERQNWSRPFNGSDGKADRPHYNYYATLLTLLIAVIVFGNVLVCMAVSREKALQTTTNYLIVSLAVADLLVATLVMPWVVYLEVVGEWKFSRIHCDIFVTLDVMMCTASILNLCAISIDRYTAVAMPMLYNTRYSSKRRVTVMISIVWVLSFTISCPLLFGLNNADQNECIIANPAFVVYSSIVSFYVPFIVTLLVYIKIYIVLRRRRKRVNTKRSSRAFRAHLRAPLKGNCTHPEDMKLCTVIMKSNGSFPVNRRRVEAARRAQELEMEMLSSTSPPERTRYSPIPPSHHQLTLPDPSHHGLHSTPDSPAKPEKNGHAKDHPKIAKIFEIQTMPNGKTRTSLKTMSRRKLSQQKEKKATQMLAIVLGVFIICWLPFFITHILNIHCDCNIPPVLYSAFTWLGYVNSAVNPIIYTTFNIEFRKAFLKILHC

Target: ^3H-Spip binding site (Homo sapiens, UniProt P14416)
Details: read-out: Ki ^3H-Spip; cited from earlier work

Row | Compound | Ki [µM]
1 | COc1cc2c(cc1O)CCN(C)[C@H]1CCc3ccccc3[C@H]21 (relative stereo) | > 100
2 | COc1cc2c(cc1O)CCN(C)[C@H]1CCc3ccccc3[C@@H]21 (relative stereo) | > 100
